This note sets out measurements from patent US7754689B2, “Finger-1 peptide analogs of the TGF-β superfamily” (Wyeth LLC, priority 2006, dated 2010).

What all share (assay type): binding
In experiment [1] the test system is BMP-3 and BMP-12. Put plainly: HPLC columns of BMP affinity resins loaded with BMP-3 and BMP-12. Conditions: columns loaded with BMP-3 and BMP-12. As to the method: The BMP affinity resins using BMP-12 and BMP-2 were prepared as described in Examples 1 and 2 and used to prepare HPLC columns. These columns were used loaded with BMP-3 and BMP-12. […] In some cases, size exclusion or reverse phase chromatography techniques were employed to enhance purification.

For experiment [2], the target named is T1, BMP-12 (Homo sapiens, UniProt Q7Z4P5).
T1 sequence (Q7Z4P5 322-450): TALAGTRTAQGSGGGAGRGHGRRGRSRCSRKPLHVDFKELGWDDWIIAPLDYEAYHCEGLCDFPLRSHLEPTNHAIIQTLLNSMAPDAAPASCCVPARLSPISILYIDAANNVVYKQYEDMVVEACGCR
Put plainly: Affinity column chromatography, capture and elution of BMP-12. How it is done: (§1) BMP-12 was immobilized on NHS-activated Sepharose™ beads at a ratio of about 20 mg:4 mL and the resulting media combined with water or neutral saline buffer to prepare a column. CHO-conditioned media augmented with 1.2 M NaCl was loaded onto the column. In some cases, the media was preconcentrated with respect to BMP before loading. The column was washed with 15 CV (column volumes) of 1.2 M NaCl in 40 mM Na2HPO4 at pH 7.2, followed by 0.5 M arginine/0.5 M NaCl in 20 mM Tris at pH 7.5 (15 CV) and a low salt wash (50 mM ammonium acetate at pH 7, 15 CV). […] Finally, the column was eluted with 5CV of the acetic acid solution with 6M guanidine hydrochloride (GuHCl).
BMP-12 was loaded and eluted from a BMP-12 affinity column as in Example 1. […] Both the monomeric and dimeric forms of BMP-12 were captured.
BMP-12 was loaded and eluted from a BMP2 affinity column as in Examples 1 and 2.
BMP-12 was purified using a column prepared with the BMP-2 mutant peptide described in Example 6. […] A small amount of BMP-12 eluted with 6M GuHCl.
BMP-12 was purified using a column prepared with the BMP-12 wild type peptide described in Example 7. […] A small amount of BMP-12 eluted with 6M GuHCl.

For experiment [3], the target named is T2, BMP-3 (Homo sapiens, UniProt P12645).
T2 construct: a propeptide fragment copurifies along with the mature protein; made in house; host or cells: CHO cells (conditioned medium)
T2 sequence (P12645 363-472): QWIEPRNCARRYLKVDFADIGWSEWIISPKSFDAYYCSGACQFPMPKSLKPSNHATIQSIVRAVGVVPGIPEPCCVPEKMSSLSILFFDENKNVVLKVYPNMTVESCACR
The experiment in a line: Affinity column chromatography, capture and elution of BMP-3. How it is done:
as §1
The eluate was analyzed using HPLC.
BMP-2 was immobilized on sepharose beads as in Example 1 and used to test the loading and elution of BMP-3. […] As for the BMP-12 column, a propeptide fragment copurifies along with the mature protein, and trace amounts of the mature BMP-3 were also observed in the guanidine peak.
A mutant of the BMP-2 finger 1 peptide ([…]) (SEQ ID NO: 1) was linked to sepharose beads via a C-terminal lysine at a ratio of 5 mg peptide/mL resin. 4 mL of the resulting resin (1.6×2.0 cm) was used to prepare a column. The column was loaded with BMP-3 and eluted as in Example 1. […] In general, chromatography with the immobilized peptides provided higher purity product than with the whole protein. […]

Setting [4] is: washes, then gradient to 50 mM acetic acid pH 3, then 6M GuHCl.

As for “BMP-2: Bone Morphogenic Protein, member of the TGF-β superfamily; immobilized on sepharose beads as affinity ligand”, the “effectiveness as affinity ligand for reverse phase HPLC” value in experiment [1] is recorded as “equally effective”. Moreover, the “capture of BMP-12 by column with immobilized ligand” value in experiment [2] (high salt / high ionic strength load) was “effectively captured”. Also, in experiment [2] (setting [4]), the “elution of BMP-12 from column with immobilized ligand” value was “eluted with acetic acid and guanidine”. In experiment [3] (CHO-conditioned media with 1.2 M NaCl (high salt) load), the “capture of BMP-3 by column with immobilized ligand” value is given as “effectively captured”. Also, the “elution of BMP-3 from column with immobilized ligand” value in experiment [3] (setting [4]) was “eluted with acetic acid”.
